Experimental data published in article PMC11231564, “Unveiling the Ro60-Ro52 complex” (EXCLI Journal, 2024).

Amino acid sequences for entries named in this document (tags omitted). A change or cut given only in a name is not applied to a line headed by its entry.
UniProt P10155: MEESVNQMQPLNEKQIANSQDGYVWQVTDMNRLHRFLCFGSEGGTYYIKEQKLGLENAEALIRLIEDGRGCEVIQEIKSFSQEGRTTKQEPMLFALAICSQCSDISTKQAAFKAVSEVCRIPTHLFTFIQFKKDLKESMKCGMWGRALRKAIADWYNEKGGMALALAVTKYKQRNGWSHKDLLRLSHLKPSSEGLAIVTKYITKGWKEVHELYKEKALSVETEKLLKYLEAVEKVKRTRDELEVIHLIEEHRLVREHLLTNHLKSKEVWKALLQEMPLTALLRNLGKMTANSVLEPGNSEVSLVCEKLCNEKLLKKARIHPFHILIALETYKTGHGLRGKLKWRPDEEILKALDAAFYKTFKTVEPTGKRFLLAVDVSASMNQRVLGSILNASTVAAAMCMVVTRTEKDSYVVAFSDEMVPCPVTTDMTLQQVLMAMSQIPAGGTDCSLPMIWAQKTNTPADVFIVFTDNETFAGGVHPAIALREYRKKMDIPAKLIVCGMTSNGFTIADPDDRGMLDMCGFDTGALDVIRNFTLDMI

Assays:
[1] = target: T1, Ro60 protein (recombinant human protein) (human, UniProt P10155); test: QCM-D; Ro60 coupled to the chip; Ro52 50 mg/L injected in a 100 mM CaCl2 solution; 50 µL/min, 25 °C; one-to-one binding kinetics model; apparent equilibrium constant; settings: both partners purified
T1 construct: Ro60/TROVE2 (60 kDa), human, recombinant; Coupled covalently to the QCM-D chip (mercaptopropionic acid SAM, EDC/NHS, carbohydrazide) in a1 and a2; in solution at 50 mg/L in a3; also called TROVE2; Ro60/Trove2; source: bought: Deltaclon (recombinant human protein)

[2] = target: T1, Ro60 protein (recombinant human protein); test: QCM-D; Ro60 coupled to the chip; Ro52 300 mg/L (BSA 700 mg/L) flowed over; 1x PBS pH 7.4 lacking CaCl2, 50 µL/min, 25 °C; one-to-one binding kinetics model; apparent equilibrium constant; settings: both partners purified

Ka [1]: 3.7e+06 M⁻¹
kon [1]: 2600 ± 100 M⁻¹ s⁻¹
Ka [2]: 143000 M⁻¹
kon [2]: 449 ± 16 M⁻¹ s⁻¹
B1: Ro52 protein (natural protein, human, UniProt P19474 1-475, looked up)
chain: MASAARLTMMWEEVTCPICLDPFVEPVSIECGHSFCQECISQVGKGGGSVCPVCRQRFLLKNLRPNRQLANMVNNLKEISQEAREGTQGERCAVHGERLHLFCEKDGKALCWVCAQSRKHRDHAMVPLEEAAQEYQEKLQVALGELRRKQELAEKLEVEIAIKRADWKKTVETQKSRIHAEFVQQKNFLVEEEQRQLQELEKDEREQLRILGEKEAKLAQQSQALQELISELDRRCHSSALELLQEVIIVLERSESWNLKDLDITSPELRSVCHVPGLKKMLRTCAVHITLDPDTANPWLILSEDRRQVRLGDTQQSIPGNEERFDSYPMVLGAQHFHSGKHYWEVDVTGKEAWDLGVCRDSVRRKGHFLLSSKSGFWTIWLWNKQKYEAGTYPQTPLHLQVPPCQVGIFLDYEAGMVSFYNITDHGSLIYSFSECAFTGPLRPFFSPGFNDGGKNTAPLTLCPLNIGSQGSTDY
notes: Ro52/TRIM21 (52 kDa); also called TRIM21; Ro52/Trim21
